From US20240409542A1, “NOVEL COMPOUNDS” (Sitryx Therapeutics Limited, priority 2021, published 2024)

System: A549 cells
Experiment: A549 proliferation assay in low-serine medium (CellTiter-Glo)
Assay type: cell-based
Conditions: Homo sapiens, 72 h, 3 days, low-serine medium (20 μM L-serine)
Method: In highly proliferative, glycolytically active cells, PKM2 activation accelerates flux through glycolysis and induces a powerful dependence of cell proliferation on the non-essential amino acid serine (Kung et al., 2012). The effect of compounds of Formula (I) on A549 cell proliferation in low-serine medium was assessed using a luminescence assay of viable cell number (CellTiter-Glo® 2.0, Promega) duplexed with a fluorescent cytotoxicity assessment (CellTox™ Green, Promega). Cell culture reagents were from ThermoFisher unless specified otherwise. Assay reagents were from Sigma-Aldrich unless specified otherwise. Test Compounds were prepared as 10 mM DMSO stocks and dilution series prepared in DMSO for direct dilution into culture medium. […]
Cells were incubated for 3 days in a humidified incubator (37° C., 5% CO2) at which point CellTox™ Green and CellTiter-Glo® reagents were prepared according to the manufacturer's instructions. […] Endpoint fluorescence was measured using a plate reader (PHERAstar® FSX, BMG Labtech).
Following cytotoxicity determination, CellTiter-Glo® reagent was added to each well and the plate placed on an orbital shaker @450 rpm for 2 minutes to lyse cells. Plates were incubated in the dark for 15-30 minutes (20° C., ambient humidity and pCO2) prior to endpoint luminescence measurement (PHERAstar® FSX, BMG Labtech). […]

Cn1c2cc([S+](C)[O-])sc2c2cnn(Cc3cccc(N)c3)c(=O)c21 (stereo not shown) [TEPP-46, reference compound]
IC50: 1.6 nM
